Measurements as given in patent US20260215432A1, “ANTIMICROBIAL CONJUGATED OLIGOELECTROLYTES AND METHODS THEREOF” (National University of Singapore, priority 2023, published 2026).

Key:
Test in all cases: MIC, broth microdilution in CA-MHB
Assay type in all cases: cell-based
[1] = tested on: S. aureus (ATCC 29213)
Description: (§1) Antimicrobial activity was screened against a range of pathogens made up of clinically relevant ESKAPE pathogens by determination of the minimum inhibitory concentration (MIC) in cation-adjusted Mueller-Hinton broth (CA-MHB).
(§2) Minimum inhibitory concentrations of COEs were determined through a broth microdilution method in accordance with the Clinical and Laboratory Standards Institute (CLSI) guidelines M07-A10. A single bacterial colony was isolated from an overnight culture and grown to mid-log phase (OD600~0.8). Compounds were prepared as a stock solution in DMSO and diluted in a sterile flat-bottom 96-well plate in CA-MHB. Subsequent concentrations were prepared by two-fold dilution of the initial solution. An equivalent volume of bacteria was added to the compound to a final concentration of 5×10^5 cfu/mL. Plates were incubated at 37° C. for 16-18 hours, and read at OD600 using a microplate reader (TECAN Spark®). […] MIC values were determined for each compound in triplicate.

[2] = tested on: Methicillin-resistant S. aureus (ATCC BAA1717)
Description: as §1, §2

[3] = tested on: E. faecalis OG1RF (ATCC 47077)
Description: as §1, §2

[4] = tested on: E. facium (ATCC 19434)
Description: as §1, §2

Polymyxin B [reference compound]
>128 µg/mL: MIC SA [1] | MIC MRSA [2] | MIC FAE [3] | MIC FAC [4]
